Here are results for one compound from US20110151529A1, “METHODS AND PROCESSES FOR PRODUCING ORGANIC ACIDS” (THE OHIO STATE UNIVERSITY, priority 2008, published 2011).

For this test, the system named is ATPase. As to the kind of experiment: Butyric acid inhibition of ATPase activity, FBB-adapted mutant vs wild type.

Consider `CCCC(=O)O` [butyric acid], for which the “increase in the inhibition rate constant of ATPase, mutant vs wild type” value was determined as 4 fold.
